Measured values: patent US20110009343A1, “MODULATORS OF AMYLOID AGGREGATION” (Praecis Pharmaceuticals, Inc., priority 1995, published 2011)

By UniProt entry, the sequences of proteins in these tests, tags left out. Residues count along the entry.
UniProt P05067, 672-711: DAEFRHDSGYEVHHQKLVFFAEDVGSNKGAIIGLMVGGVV

Assays:
Type in all cases: biochemical
[1] = molecular target: T1, Aβ1-40 (Homo sapiens, UniProt P05067); test: Nucleation assay (turbidity, A405 nm); conditions: Table II; 100 mole % vs 50 μM Aβ1-40;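 also: synthetic Aβ monomer polymerization followed by turbidity in 96-well plates with continuous shaking, read every 15 minutes over 5 hours, compared against wells lacking test compound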
T1 construct: (β-AP1-40) was obtained commercially from Bachem (Torrance, Calif.); purchased Bachem (Torrance, Calif.)

[2] = molecular target: T2, Aβ(1-40) peptide (Homo sapiens, UniProt P05067); test: Seeded static assay (SSA), Thioflavin-T fluorescence; conditions: inhibitor tested at 100 μM and 10 μM
T2 construct: (β-AP1-40) was obtained commercially from Bachem (Torrance, Calif.); purchased Bachem (Torrance, Calif.)

[3] = molecular target: T2, Aβ(1-40) peptide; test: Shaken plate aggregation assay (absorbance 405 nm); conditions: % conc relative to Aβ(1-40) as printed in cell

## CC(C)[C@H](NC(=O)[C@H](CCC(=O)O)NC(=O)[C@H](Cc1ccc(O)cc1)NC(=O)CNC(=O)[C@H](CO)NC(=O)[C@H](CC(=O)O)NC(=O)[C@H](Cc1c[nH]cn1)NC(=O)[C@H](CCCNC(=N)N)NC(=O)[C@H](Cc1ccccc1)NC(=O)[C@H](CCC(=O)O)NC(=O)[C@H](C)NC(=O)[C@H](CC(=O)O)NC(=O)CCCC[C@@H]1SC[C@@H]2NC(=N)N[C@@H]21)C(=O)N[C@@H](Cc1c[nH]cn1)C(=O)N[C@@H](Cc1c[nH]cn1)C(=O)N[C@@H](CCC(N)=O)C(=O)O [PPI-172]
[1]
  Fold Increase in Lag Time: 1.2 fold

## CC(C)[C@H](NC(=O)[C@H](CCC(=O)O)NC(=O)[C@H](Cc1ccc(O)cc1)NC(=O)CNC(=O)[C@H](CO)NC(=O)[C@H](CC(=O)O)NC(=O)[C@H](Cc1c[nH]cn1)NC(=O)[C@H](CCCNC(=N)N)NC(=O)[C@H](Cc1ccccc1)NC(=O)[C@H](CCC(=O)O)NC(=O)[C@H](C)NC(=O)[C@H](CC(=O)O)NC(=O)CC[C@@H](C)[C@H]1CC[C@H]2[C@@H]3[C@H](O)C[C@@H]4C[C@H](O)CC[C@]4(C)[C@H]3C[C@H](O)[C@]12C)C(=O)N[C@@H](Cc1c[nH]cn1)C(=O)N[C@@H](Cc1c[nH]cn1)C(=O)N[C@@H](CCC(N)=O)C(=O)O [PPI-174]
[2]
  Effect in Seeded Static Assay: ++ (A strong inhibitor of aggregation. The rate of aggregation in the presence of the inhibitor was decreased compared to the control by at least 30-50%)

## Candidate Inhibitor 180: Aβ1-15 modified with (−)-menthoxy acetic acid
[2]
  Effect in Seeded Static Assay: ++ (A strong inhibitor of aggregation. The rate of aggregation in the presence of the inhibitor was decreased compared to the control by at least 30-50%)
[3]
  Effect in shaken plate assay: None
